Measurements published in ChEMBL document CHEMBL1134466 (J Med Chem, 2001).

Assays:
Mus musculus [1] = test: Toxicity in female B6D2F1 mice measured as BUN when given 8 mg/kg daily * 5 (ip); settings: in vivo
Mus musculus [2] = test: Toxicity in female B6D2F1 mice measured as WBC count when given 8 mg/kg daily * 5 (ip); settings: in vivo
Mus musculus [3] = test: Antitumor activity against B16 murine melanoma at a dose of 16 mg/kg (ip) measured as percent weight change on day 8
Mus musculus [4] = test: Toxicity in female B6D2F1 mice measured as WBC count when given 1.6 mg/kg daily * 5 (ip); settings: in vivo
Mus musculus [5] = test: Toxicity in female B6D2F1 mice measured as alanine aminotransferase when given 0 mg/kg daily * 5 (ip); settings: in vivo
Mus musculus [6] = test: Toxicity in female B6D2F1 mice measured as RBC count when given 8 mg/kg daily * 5 (ip); settings: in vivo
Mus musculus [7] = test: Antitumor activity against B16 murine melanoma at a dose of 16 mg/kg (ip) measured as increased life span (% T/C)
Mus musculus [8] = test: Toxicity in female B6D2F1 mice measured as WBC count when given 16 mg/kg daily * 5 (ip); settings: in vivo
Mus musculus [9] = test: Toxicity in female B6D2F1 mice measured as alanine aminotransferase when given 8 mg/kg daily * 5 (ip); settings: in vivo
Mus musculus [10] = test: Toxicity in female B6D2F1 mice measured as platelet count when given 16 mg/kg daily * 5 (ip); settings: in vivo
Mus musculus [11] = test: Toxicity in female B6D2F1 mice measured as RBC count when given 0 mg/kg daily * 5 (ip); settings: in vivo
Mus musculus [12] = test: Toxicity in female B6D2F1 mice measured as spleen wt when given 1.6 mg/kg daily * 5 (ip); settings: in vivo
Mus musculus [13] = test: Toxicity in female B6D2F1 mice measured as spleen wt when given 8 mg/kg daily * 5 (ip); settings: in vivo
Mus musculus [14] = test: Antitumor activity in MX-1 Xenograft Model at a dose of 40 mg/kg (po) measured as number of mice with complete tumor regression
Mus musculus [15] = test: Toxicity in female B6D2F1 mice measured as thymus wt when given 0 mg/kg daily * 5 (ip); settings: in vivo
Mus musculus [16] = test: Toxicity in female B6D2F1 mice measured as alkaline phosphatase when given 1.6 mg/kg daily * 5 (ip); settings: in vivo
Mus musculus [17] = test: Toxicity in female B6D2F1 mice measured as alkaline phosphatase when given 16 mg/kg daily * 5 (ip); settings: in vivo
Mus musculus [18] = test: Toxicity in female B6D2F1 mice measured as BUN when given 16 mg/kg daily * 5 (ip); settings: in vivo
Mus musculus [19] = test: Antitumor activity in MX-1 Xenograft Model at a dose of 40 mg/kg (po) measured as percent weight change on day 8
Mus musculus [20] = test: Antitumor activity against B16 murine melanoma at a dose of 8 mg/kg (ip) measured as 60-day survivors (% LTS)
Mus musculus [21] = test: Toxicity in female B6D2F1 mice measured as alanine aminotransferase when given 1.6 mg/kg daily * 5 (ip); settings: in vivo
Mus musculus [22] = test: Antitumor activity in MX-1 Xenograft Model at a dose of 8 mg/kg (ip) measured as percent growth inhibition
Mus musculus [23] = test: Antitumor activity in MX-1 Xenograft Model at a dose of 8 mg/kg (ip) measured as percent weight change on day 8
Mus musculus [24] = test: Toxicity in female B6D2F1 mice measured as thymus wt when given 1.6 mg/kg daily * 5 (ip); settings: in vivo
Mus musculus [25] = test: Toxicity to bone marrow granulocyte/macrophage progenitors per femur at a dose of 200 mg/kg (ip); settings: in vivo
Mus musculus [26] = test: Toxicity to bone marrow granulocyte/macrophage progenitors per femur at a dose of 100 mg/kg (ip); settings: in vivo
Mus musculus [27] = test: Antitumor activity in MX-1 Xenograft Model at a dose of 8 mg/kg (ip) measured as number of mice with complete tumor regression
Mus musculus [28] = test: Toxicity in female B6D2F1 mice measured as alkaline phosphatase when given 0 mg/kg daily * 5 (ip); settings: in vivo
Mus musculus [29] = test: Toxicity in female B6D2F1 mice measured as thymus wt when given 8 mg/kg daily * 5 (ip); settings: in vivo
Mus musculus [30] = test: Toxicity in female B6D2F1 mice measured as alanine aminotransferase when given 16 mg/kg daily * 5 (ip); settings: in vivo
Mus musculus [31] = test: Toxicity in female B6D2F1 mice measured as platelet count when given 8 mg/kg daily * 5 (ip); settings: in vivo
Mus musculus [32] = test: Toxicity in female B6D2F1 mice measured as BUN when given 0 mg/kg daily * 5 (ip); settings: in vivo
Mus musculus [33] = test: Antitumor activity in MX-1 Xenograft Model at a dose of 40 mg/kg (po) measured as percent growth inhibition
Mus musculus [34] = test: Toxicity in female B6D2F1 mice measured as spleen wt when given 16 mg/kg daily * 5 (ip); settings: in vivo
Mus musculus [35] = test: Toxicity in female B6D2F1 mice measured as RBC count when given 1.6 mg/kg daily * 5 (ip); settings: in vivo
Mus musculus [36] = test: Toxicity in female B6D2F1 mice measured as thymus wt when given 16 mg/kg daily * 5 (ip); settings: in vivo
Mus musculus [37] = test: Toxicity in female B6D2F1 mice measured as alkaline phosphatase when given 8 mg/kg daily * 5 (ip); settings: in vivo
Mus musculus [38] = test: Antitumor activity in MX-1 Xenograft Model at a dose of 16 mg/kg (ip) measured as percent growth inhibition
Mus musculus [39] = test: Toxicity in female B6D2F1 mice measured as spleen wt when given 0 mg/kg daily * 5 (ip); settings: in vivo
Mus musculus [40] = test: Toxicity in female B6D2F1 mice measured as platelet count when given 0 mg/kg daily * 5 (ip); settings: in vivo
Mus musculus [41] = test: Antitumor activity against B16 murine melanoma at a dose of 8 mg/kg (ip) measured as increased life span (% T/C)
Mus musculus [42] = test: Antitumor activity in MX-1 Xenograft Model at a dose of 40 mg/kg (po) measured as number of mice with partial tumor regression
Mus musculus [43] = test: Antitumor activity in MX-1 Xenograft Model at a dose of 8 mg/kg (ip) measured as number of mice with partial tumor regression
Mus musculus [44] = test: Toxicity to bone marrow granulocyte/macrophage progenitors per femur at a dose of 150 mg/kg (ip); settings: in vivo
Mus musculus [45] = test: Toxicity in female B6D2F1 mice measured as BUN when given 1.6 mg/kg daily * 5 (ip); settings: in vivo
Mus musculus [46] = test: Toxicity in female B6D2F1 mice measured as WBC count when given 0 mg/kg daily * 5 (ip); settings: in vivo
Mus musculus [47] = test: Antitumor activity in MX-1 Xenograft Model at a dose of 16 mg/kg (ip) measured as number of mice with complete tumor regression
Mus musculus [48] = test: Antitumor activity in MX-1 Xenograft Model at a dose of 16 mg/kg (ip) measured as number of mice with partial tumor regression
Mus musculus [49] = test: Toxicity in female B6D2F1 mice measured as RBC count when given 16 mg/kg daily * 5 (ip); settings: in vivo
Mus musculus [50] = test: Toxicity in female B6D2F1 mice measured as platelet count when given 1.6 mg/kg daily * 5 (ip); settings: in vivo
Mus musculus [51] = test: Half life period after (ip) administration of 50 mg/kg in B6D2F1 mice; settings: in vivo
Mus musculus [52] = test: Antitumor activity in MX-1 Xenograft Model at a dose of 16 mg/kg (ip) measured as percent weight change on day 8
Mus musculus [53] = test: Antitumor activity against B16 murine melanoma at a dose of 16 mg/kg (ip) measured as 60-day survivors (% LTS)

`NP(=O)(OCc1ccc([N+](=O)[O-])o1)N(CCBr)CCBr` (stereo not drawn) was tested, and the BUN (Mus musculus [1]) was 23.6 mg/dL, the WBC x10e-3 (Mus musculus [2]) was 2.5 µL⁻¹ and the Weight change (Mus musculus [3]) was 19%. For the same compound, the WBC x10e-3 (Mus musculus [4]) was 4.5 µL⁻¹, the ALT. (Mus musculus [5]) was 40 U l-1 and the RBC x 10e 3 (Mus musculus [6]) was 7.9 µL⁻¹. The T/C (Mus musculus [7]) was 228%, the WBC x10e-3 (Mus musculus [8]) was 1.9 µL⁻¹ and the ALT. (Mus musculus [9]) was 37 U l-1. It also gave a Platelets x10e-3 (Mus musculus [10]) of 689 µL⁻¹, an RBC x 10e 3 (Mus musculus [11]) of 8.5 µL⁻¹ and a Weight (Mus musculus [12]) of 88 mg. It also gave a Weight (Mus musculus [13]) of 48 mg, a No. total (Mus musculus [14]) of 1 and a Weight (Mus musculus [15]) of 41 mg. It also gave an alkaline phosphatase activity (Mus musculus [16]) of 134 U l-1, an alkaline phosphatase activity (Mus musculus [17]) of 89 U l-1 and a BUN (Mus musculus [18]) of 23 mg/dL. The Weight change (Mus musculus [19]) was 3%, the LTS (Mus musculus [20]) was 0% and the ALT. (Mus musculus [21]) was 43 U l-1. The growth inhibition (GI) (Mus musculus [22]) was 93%, the Weight change (Mus musculus [23]) was 0% and the Weight (Mus musculus [24]) was 57 mg. The Control (Mus musculus [25]) was 28%, the Control (Mus musculus [26]) was 79% and the No. total (Mus musculus [27]) was 0. It also gave an alkaline phosphatase activity (Mus musculus [28]) of 144 U l-1, a Weight (Mus musculus [29]) of 33 mg and an ALT. (Mus musculus [30]) of 45 U l-1. For the same compound, the Platelets x10e-3 (Mus musculus [31]) was 1190 µL⁻¹, the BUN (Mus musculus [32]) was 30.6 mg/dL and the growth inhibition (GI) (Mus musculus [33]) was 98%. The Weight (Mus musculus [34]) was 45 mg, the RBC x 10e 3 (Mus musculus [35]) was 8.7 µL⁻¹ and the Weight (Mus musculus [36]) was 17 mg. The alkaline phosphatase activity (Mus musculus [37]) was 123 U l-1, the growth inhibition (GI) (Mus musculus [38]) was > 99% and the Weight (Mus musculus [39]) was 68 mg. It also gave a Platelets x10e-3 (Mus musculus [40]) of 846 µL⁻¹, a T/C (Mus musculus [41]) of 199% and a No. partial (Mus musculus [42]) of 5. For the same compound, the No. partial (Mus musculus [43]) was 4, the Control (Mus musculus [44]) was 52% and the BUN (Mus musculus [45]) was 20 mg/dL. For the same compound, the WBC x10e-3 (Mus musculus [46]) was 5.6 µL⁻¹, the No. total (Mus musculus [47]) was 6 and the No. partial (Mus musculus [48]) was 4. For the same compound, the RBC x 10e 3 (Mus musculus [49]) was 7.7 µL⁻¹, the Platelets x10e-3 (Mus musculus [50]) was 970 µL⁻¹ and the T1/2 (Mus musculus [51]) was 11.6 min. The Weight change (Mus musculus [52]) was 4% and the LTS (Mus musculus [53]) was 40%.
